Results reported in patent publication US7375222B2, “2,4,6-Triamino-1,3,5-triazine derivative” (Astellas Pharma Inc., priority 2002, dated 2008).

Protein sequences, listed by entry. Tags and fused reporters are not part of them.
UniProt Q9ULD8, whole entry: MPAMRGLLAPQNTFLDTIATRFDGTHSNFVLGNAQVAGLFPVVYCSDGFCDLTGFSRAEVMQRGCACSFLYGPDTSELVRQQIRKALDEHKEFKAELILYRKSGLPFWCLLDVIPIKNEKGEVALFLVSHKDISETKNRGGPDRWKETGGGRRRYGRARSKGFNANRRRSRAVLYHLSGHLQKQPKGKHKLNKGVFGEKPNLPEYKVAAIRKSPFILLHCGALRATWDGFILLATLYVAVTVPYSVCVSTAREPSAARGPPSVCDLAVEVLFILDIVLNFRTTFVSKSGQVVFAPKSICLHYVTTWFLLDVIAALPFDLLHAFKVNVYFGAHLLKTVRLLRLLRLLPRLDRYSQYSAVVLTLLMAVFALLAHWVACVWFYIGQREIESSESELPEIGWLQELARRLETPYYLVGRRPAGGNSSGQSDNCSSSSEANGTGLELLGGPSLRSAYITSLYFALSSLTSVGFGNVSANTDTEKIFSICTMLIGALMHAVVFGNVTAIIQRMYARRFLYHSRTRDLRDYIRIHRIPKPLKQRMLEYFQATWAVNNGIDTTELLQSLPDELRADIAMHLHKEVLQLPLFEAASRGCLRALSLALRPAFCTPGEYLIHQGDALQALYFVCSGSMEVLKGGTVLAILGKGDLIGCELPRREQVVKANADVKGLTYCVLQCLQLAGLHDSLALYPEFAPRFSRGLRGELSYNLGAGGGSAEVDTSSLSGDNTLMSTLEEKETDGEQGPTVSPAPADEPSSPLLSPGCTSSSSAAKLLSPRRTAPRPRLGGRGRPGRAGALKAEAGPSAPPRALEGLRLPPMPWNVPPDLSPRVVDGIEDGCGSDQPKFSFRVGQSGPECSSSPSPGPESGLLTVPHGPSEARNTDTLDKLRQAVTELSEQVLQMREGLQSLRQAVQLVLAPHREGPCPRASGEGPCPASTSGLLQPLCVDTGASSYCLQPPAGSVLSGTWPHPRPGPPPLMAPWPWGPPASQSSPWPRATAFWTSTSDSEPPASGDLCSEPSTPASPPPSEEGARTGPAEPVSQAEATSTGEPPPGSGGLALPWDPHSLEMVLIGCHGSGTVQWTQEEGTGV

Biological target: BEC 1 potassium channel (Homo sapiens, UniProt Q9ULD8)
Assay: BEC 1 inhibitory activity using released amount of 86Rb ions from BEC 1-expressing cells
Details: read-out: BEC1 IC50; 86Rb ion release, BEC 1-stably expressing CHO (dhfr-deficient) cell, 100 mM KCl stimulation; tested form: HCl
Description: In general, the potassium channel can pass Rb^+ ion similar to K^+ ion, so that the channel activity can be measured using release of a radioisotope ^86Rb^+ as a marker. By incubating cells expressing the novel potassium channel protein together with ^86RbCl (e.g., 18 hr, 37° C.), ^86Rb^+ can be incorporated into the cells. The cells are washed with a low K^+ concentration physiological saline (e.g., 4.5 mM K^+) and then suspended in the same solution. When a high K^+ concentration solution (e.g., 100 mM in final concentration) is added to the cell suspension, membrane potential of the cell is depolarized and the potassium channel therefore is activated. As a result, the intracellular ^86Rb^+ is released into the extracellular part, thus radioactivity of the extracellular solution can be used as a marker of the channel activity. It is possible to screen a compound and a peptide capable of modifying activity of the BEC 1 potassium channel protein, by comparing the radioactivity released into the extracellular part when the high K^+ concentration solution is added in the presence and absence of each drug to be tested. […]
The channel activity of BEC 1 was measured in accordance with the method described in WO 99/37677, using amount of a radioisotope ^86Rb ion released from a BEC 1-expressing cell as the index. […]

How did the IC50 turn out when `Fc1cc(CNc2nc(Nc3ccccc3)nc(Nc3ccccc3)n2)ccn1` was run?
Its IC50 is 79 nM.
